Data reported in patent publication US20130244232A1, “HIGH-EFFICIENCY CATALYSTS, PREPARATION AND USE THEREOF” (priority 2012, published 2013).
Like-named read-outs stand apart in the source and are kept apart here.

Test: Peroxidase activity: ABTS oxidation with H2O2 (formation of ABTS+• radical cation at 660 nm)
Type: biochemical
Settings: for Specific activity: ABTS oxidation with H2O2, pH 6.5
Method: The peroxidase activity of the compound on the secondary substrate ABTS was evaluated by following the formation of the ABTS^+• radical cation, in the presence of H2O2.
The reaction was followed by using spectrophotometry, measuring the appearance of the products in the reaction medium. The formation of ABTS^+• cation radical was followed at 660 nm (λmax (ε)=660 nm (1.40×10^4 M^−1cm^−1)). The reaction was performed in 50% TFE (v/v) 100 mM phosphate buffer, pH 6.5, using a 2.0×10^−7 M catalyst concentration.
Kinetic parameters of the compound were determined by varying the H2O2 concentration using fixed concentrations of the reducing substrates, and vice versa.
In more details, in the experiments performed at various H2O2 concentrations (in the range 0.01÷ 200 mM) the ABTS concentration was kept constant at 0.1 mM. In the experiments performed at various ABTS concentrations (in the range 0.005÷ 0.1 mM) the H2O2 concentration was 50 mM.
The experiments were performed in 50% TFE (v/v) 100 mM phosphate buffer, pH 6.5. As described in the example 10, the catalytic process was evaluated by following the formation of the ABTS^+• radical cation at 660 nm (c=[…] cm^−1). Kinetic parameters of the compound were determined by varying the H2O2 concentration using fixed concentrations of the reducing substrates, and vice versa.
In more details, in the first experiment the ABTS and the conjugate concentrations were kept constant at 0.1 mM and 2 10^−7 M, respectively, and the H2O2 concentration was varied in the range 10-100 mM. In the second experiment, the H2O2 and the conjugate concentrations were fixed at 50 mM and 2 10^−7 M, respectively, and the ABTS concentration was varied in the range 0.005÷ 0.1 mM.

3,7,12,17-tetramethyl-porphyrin-2(18)-N9epsilon-(Ace-Asp1-Leu2-Gln3-Gln4-Leu5-His6-Ser7-Gln8-Lys9-Arg10-Lys11-Ile12-Thr13-Leu14-NH2)-18(2)-N9epsilon-(Ace-Asp1-Glu2-Gln3-Gln4-Leu5-Ser6-Ser7-Gln8-Lys9-Arg10-NH2)-di-propionamide [Example 6]
Specific activity: 13.43 mol/g/min | kcat (ABTS oxidation with H2O2, pH 6.5, 50% TFE (v/v) 100 mM phosphate buffer): 785 s⁻¹ | Km (ABTS oxidation with H2O2, pH 6.5, 50% TFE (v/v) 100 mM phosphate buffer, read-out: Km^H2O2): 31 mM | Specific activity (listed as Esempio 6): 13.430 mol/g/min | Km (AH2 = ABTS, pH 6.5, 50% TFE (v/v) 100 mM phosphate buffer, read-out: Km^AH2): 0.05 mM
